ChEMBL document CHEMBL4814008, “Using porphyrins as albumin-binding molecules to enhance antitumor efficacies and reduce systemic toxicities of antimicrobial peptides” (Eur J Med Chem, 2021)

The chains behind the UniProt entries cited, without tags or fusion partners.
UniProt P02768, whole entry: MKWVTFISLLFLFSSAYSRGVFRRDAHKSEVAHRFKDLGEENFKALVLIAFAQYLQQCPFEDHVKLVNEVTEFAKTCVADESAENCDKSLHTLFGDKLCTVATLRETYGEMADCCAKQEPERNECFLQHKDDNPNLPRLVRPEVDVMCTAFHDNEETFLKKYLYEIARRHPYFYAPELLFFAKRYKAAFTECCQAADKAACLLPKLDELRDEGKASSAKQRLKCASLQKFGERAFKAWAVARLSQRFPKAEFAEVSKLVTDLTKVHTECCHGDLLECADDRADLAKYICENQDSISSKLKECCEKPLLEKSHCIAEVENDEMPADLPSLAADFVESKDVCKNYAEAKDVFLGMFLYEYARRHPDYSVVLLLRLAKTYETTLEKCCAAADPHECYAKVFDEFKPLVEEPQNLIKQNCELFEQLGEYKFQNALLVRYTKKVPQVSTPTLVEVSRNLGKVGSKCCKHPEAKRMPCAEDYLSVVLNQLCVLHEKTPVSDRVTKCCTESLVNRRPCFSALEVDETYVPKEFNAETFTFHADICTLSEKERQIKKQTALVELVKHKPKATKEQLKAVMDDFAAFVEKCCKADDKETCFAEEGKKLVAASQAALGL

Target: Albumin (Homo sapiens, UniProt P02768)
Assay: Binding affinity to human serum albumin assessed as dissociation constant by fluorescence emission spectrophotometric analysis
Assay type: ADME, cell-free

Cc1cc(-c2ccc(/N=N/c3ccc4c(S(=O)(=O)O)cc(S(=O)(=O)O)c(N)c4c3O)c(C)c2)ccc1/N=N/c1ccc2c(S(=O)(=O)O)cc(S(=O)(=O)O)c(N)c2c1O [EVANS BLUE]
Kd: 2500 nM
